Source: ChEMBL document CHEMBL1137885, “P4 and P1' optimization of bicycloproline P2 bearing tetrapeptidyl alpha-ketoamides as HCV protease inhibitors” (Bioorg Med Chem Lett, 2004)

Molecular target: NS3 (Hepatitis C virus, UniProt A3EZJ3)
Assay: Inhibition of HCV NS3 protease in the pNA based inhibition assay
Set-up: species or system Hepacivirus hominis

Ki: 0.08 µM
Structure (SMILES): CCCC(NC(=O)[C@@H]1[C@H]2CCC[C@H]2CN1C(=O)[C@@H](NC(=O)[C@@H](NC(=O)c1cnccn1)C(C)C)C(C)(C)C)C(=O)C(=O)NC1CC1 (stereo partly specified)
